In patent US20130150294A1 one finds percent of Na+/K+-ATPase in the plasma membrane colocalized with Src data, which are given here for 1 substance.

This assay has as its target Src of LLC-PK1 cells (endogenous) (pig) (UniProt K7GM45). As to the kind of experiment: pixel analysis of double immunostaining, confocal microscopy, LLC-PK1 cells.

Substance “Na+/K+-ATPase α1 of LLC-PK1 cells (endogenous) (from UniProt P05024 1-1021) (enzyme)” registered a percent of Na+/K+-ATPase in the plasma membrane colocalized with Src of 25.2%.
